Results taken from ChEMBL document CHEMBL1649086, “Evaluation of novel N1-methyl-2-phenylindol-3-ylglyoxylamides as a new chemotype of 18 kDa translocator protein-selective ligand suitable for the development of positron emission tomography radioligands” (J Med Chem, 2011).

Protein sequences, listed by entry. Tags and fused reporters are not part of them.
UniProt P30536, whole entry: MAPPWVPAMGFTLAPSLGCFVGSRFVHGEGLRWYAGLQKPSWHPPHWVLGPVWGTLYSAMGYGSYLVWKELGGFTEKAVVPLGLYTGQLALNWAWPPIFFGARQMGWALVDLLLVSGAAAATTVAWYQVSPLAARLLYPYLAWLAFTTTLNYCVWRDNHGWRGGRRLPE

Tests used:
Assay type in all cases: cell membranes
Translocator protein [1] = biological target: T1, Translocator protein (Homo sapiens, UniProt P30536); test: Displacement of [11C]PK11195 from high affinity binding site of TSPO in human brain membrane homogenate by scintillation counting
Translocator protein [2] = biological target: T1, Translocator protein; test: Displacement of [11C]PK11195 from mixed affinity binding site of TSPO in human brain membrane homogenate by scintillation counting
Translocator protein [3] = biological target: T1, Translocator protein; test: Displacement of [11C]PK11195 from low affinity binding site of TSPO in human brain membrane homogenate by scintillation counting

Ki (Translocator protein [1]): 1.57 nM
Ki (Translocator protein [2]): 1.82 nM
Ki (Translocator protein [3]): 9.53 nM
SMILES: CCCN(CCC)C(=O)C(=O)c1c(-c2ccc([N+](=O)[O-])cc2)n(C)c2ccccc12
